PMC12497685, “Anticoronavirus Isoquinoline Alkaloids: Unraveling the Secrets of Their Structure–Activity Relationship” (Influenza and Other Respiratory Viruses, 2025)
Several values for one entry are separate records, joined by “and”; a condition that tells them apart may be missing. Equal values may be shown once.

System: Huh7 cells
Conditions: at 10 μM, compared with vehicle control, n = 1

(+)‐thalictricavine [Compound 27]
Cytotoxicity to the host Huh7 cells %: 35% and 35%–40%
